# Experimental data reported in US20090124688A1, “Prostaglandin reductase inhibitors” (priority 2006, published 2009).
# System: 3T3-L1 cells
# Assay: Glucose transport assay, uptake of 2-deoxy-D-[3H]glucose in differentiated 3T3-L1 cells
# Format: cell-based, mouse
# Conditions: insulin treatment alone, 100 nM
# Method: The effect of compound 28 on insulin sensitivity was examined as follows. 3T3-L1cells were induced to differentiate in the same manner as described above. A glucose transport assay was performed by measuring uptake of 2-deoxy-D-[3H]glucose as described by Fingar et al. See Fingar et al., Endocrinology 134:728-735. 1.67 μM of the compound or 45 nM of a PPARs agonist, i.e., Avandia, was added to the cells. 10 μM cytochalasin-B was used to measure background glucose uptake levels. 100 nM of insulin was used to stimulate glucose uptake. Insulin treatment alone in differentiated 3T3-L1 cells increased glucose uptake by 20 folds. In the presence of compound 27, glucose uptake was increased by 30 folds.
substance,measurement,value
Insulin,increase of glucose uptake,20 folds
